From patent publication US20210094971A1, “HETEROCYCLIC COMPOUNDS” (Hoffmann-La Roche Inc., priority 2019, published 2021) come the findings set out here.

Amino acid sequences for entries named in this document (tags omitted).
UniProt Q99685, whole entry: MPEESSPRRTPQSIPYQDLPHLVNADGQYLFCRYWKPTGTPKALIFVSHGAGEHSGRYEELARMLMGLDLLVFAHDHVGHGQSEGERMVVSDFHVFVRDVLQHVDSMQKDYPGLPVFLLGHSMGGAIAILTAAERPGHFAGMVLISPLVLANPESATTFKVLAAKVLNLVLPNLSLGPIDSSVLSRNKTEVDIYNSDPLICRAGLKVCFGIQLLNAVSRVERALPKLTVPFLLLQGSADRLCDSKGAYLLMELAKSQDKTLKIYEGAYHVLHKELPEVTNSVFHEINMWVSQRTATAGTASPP

pIC50: −log10 of the molar value.

In this test the target is MAGL (Homo sapiens, UniProt Q99685). In words: 2-AG assay (MAGL inhibitory activity, hydrolysis of 2-arachidonoylglycerol followed by mass spectrometry). Conditions: read-out: MAGL IC50, 50 pM MAGL, 8 μM 2-arachidonoylglycerol, 15 min pre-incubation, 30 min incubation at RT. Here is the method:
Compounds were profiled for MAGL inhibitory activity by determining the enzymatic activity by following the hydrolysis of the natural substrate 2-arachidonoylglycerol resulting in arachidonic acid, which can be followed by mass spectrometry. This assay is hereinafter abbreviated “2-AG assay”.
The 2-AG assay was carried out in 384 well assay plates (PP, Greiner Cat# 784201) in a total volume of 20 μL. Compound dilutions were made in 100% DMSO (VWR Chemicals 23500.297) in a polypropylene plate in 3-fold dilution steps to give a final concentration range in the assay from 12.5 μM to 0.8 pM. 0.25 μL compound dilutions (100% DMSO) were added to 9 μL MAGL in assay buffer (50 mM TRIS (GIBCO, 15567-027), 1 mM EDTA (Fluka, 03690-100 ml), 0.01% (v/v) Tween. After shaking, the plate was incubated for 15 min at RT. To start the reaction, 10 μL 2-arachidonoylglycerol in assay buffer was added. The final concentrations in the assay was 50 pM MAGL and 8 μM 2-arachidonoylglyerol. After shaking and 30 min incubation at RT, the reaction was quenched by the addition of 40 μL of acetonitrile containing 4 μM of d8-arachidonic acid. The amount of arachidonic acid was traced by an online SPE system (Agilent Rapidfire) coupled to a triple quadrupole mass spectrometer (Agilent 6460). […] The activity of the compounds was calculated based on the ratio of intensities [arachidonic acid/d8-arachidonic acid].

For `O=C1CO[C@H]2CCN(C(=O)N3CC4CC3CC4OCc3cc4c(cn3)CCCC4)C[C@H]2N1` (single isomer, unassigned), the pIC50 is 7.26.

By pIC50 is commonly meant the negative decadic logarithm of the IC50, by convention in mol/L.
